pIC50: −log10 of the molar value.
Tests used:
[1] = biological target: biotinylated truncated STAT6 (123-632)-avi (Homo sapiens, UniProt P42226); assay: STAT6 HTRF binding assay; conditions: read-out: STAT6 HTRF: Average IC50; HTRF binding, 0.15 nM biotinylated truncated STAT6 (123-632)-avi, 20 nM fluorescein-labeled probe
STAT6-HiBiT = STAT6-HiBiT (Homo sapiens, UniProt P42226); assay: STAT6 HiBiT degradation in A549 (STAT6-HiBiT) cells; conditions: for DC50: read-out: STAT6 HiBiT degradation DC50 (nM) 24 h
Description: Degradation of STAT6 in endogenously tagged STAT6-HiBiT A549 cells was quantitatively measured using the Nano-Glo HiBiT Lytic Detection System (Promega, 3040). A549 (STAT6-HiBiT) cells were seeded in 384-well plates with a density of 1.25k cells per well in 20 μl fresh media. Compounds were then added to the assay plates using the Apricot S3 with a final top concentration of up to 10 uM in a 4-fold dilution series with total of 10 doses. The assay plates were then incubated for 24 hours at 37° C. under 5% CO2. At the assay endpoint, 20 μL of Nano-Glo HiBiT Lytic Reagent was added to each well and agitated on a plate shaker at 300 rpm for 10 minutes at room temperature. Luminescence was read on PHERAStar FSX Instrument (Is integration time). The data was analyzed by GraphPad Prism and the dose dependent STAT6 degradation was fit using the four-parameter inhibitor vs. response nonlinear regression.
The letter codes for DC50 (nM) include: A (<1 nM): B (1-10 nM); C (>10-100 nM); D (>100-1000 nM); E (>1000 nM); and F (not tested). The letter codes for Dmax (%) include: A (>90%); B (>70-90%); C (>50-70%); D (<50%); and E (not tested).

Amino acid sequences for entries named in this document (tags omitted). Residues count along the entry.
UniProt P42226, whole entry: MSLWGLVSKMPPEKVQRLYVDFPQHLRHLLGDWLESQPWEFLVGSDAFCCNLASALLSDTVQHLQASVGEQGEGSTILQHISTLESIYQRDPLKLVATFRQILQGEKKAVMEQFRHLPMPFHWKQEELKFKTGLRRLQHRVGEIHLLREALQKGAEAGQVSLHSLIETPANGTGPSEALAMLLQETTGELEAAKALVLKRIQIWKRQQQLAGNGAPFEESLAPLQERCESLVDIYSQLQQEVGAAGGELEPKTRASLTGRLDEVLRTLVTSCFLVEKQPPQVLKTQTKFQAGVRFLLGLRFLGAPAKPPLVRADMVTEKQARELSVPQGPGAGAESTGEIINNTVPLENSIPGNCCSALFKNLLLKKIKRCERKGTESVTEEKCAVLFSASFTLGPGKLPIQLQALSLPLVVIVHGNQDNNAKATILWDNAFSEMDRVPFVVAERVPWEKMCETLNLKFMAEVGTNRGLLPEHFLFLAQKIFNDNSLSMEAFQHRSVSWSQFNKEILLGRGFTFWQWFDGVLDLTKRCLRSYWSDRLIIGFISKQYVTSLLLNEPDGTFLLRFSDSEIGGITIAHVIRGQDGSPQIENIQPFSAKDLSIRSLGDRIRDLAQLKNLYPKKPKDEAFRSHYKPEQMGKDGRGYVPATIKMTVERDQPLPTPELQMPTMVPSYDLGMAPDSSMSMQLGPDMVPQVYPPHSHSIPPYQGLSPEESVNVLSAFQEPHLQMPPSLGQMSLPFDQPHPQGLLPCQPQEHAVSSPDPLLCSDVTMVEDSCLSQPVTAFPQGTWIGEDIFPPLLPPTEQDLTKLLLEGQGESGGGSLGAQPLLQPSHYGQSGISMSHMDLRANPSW
UniProt P42226, 123-632 limits assumed: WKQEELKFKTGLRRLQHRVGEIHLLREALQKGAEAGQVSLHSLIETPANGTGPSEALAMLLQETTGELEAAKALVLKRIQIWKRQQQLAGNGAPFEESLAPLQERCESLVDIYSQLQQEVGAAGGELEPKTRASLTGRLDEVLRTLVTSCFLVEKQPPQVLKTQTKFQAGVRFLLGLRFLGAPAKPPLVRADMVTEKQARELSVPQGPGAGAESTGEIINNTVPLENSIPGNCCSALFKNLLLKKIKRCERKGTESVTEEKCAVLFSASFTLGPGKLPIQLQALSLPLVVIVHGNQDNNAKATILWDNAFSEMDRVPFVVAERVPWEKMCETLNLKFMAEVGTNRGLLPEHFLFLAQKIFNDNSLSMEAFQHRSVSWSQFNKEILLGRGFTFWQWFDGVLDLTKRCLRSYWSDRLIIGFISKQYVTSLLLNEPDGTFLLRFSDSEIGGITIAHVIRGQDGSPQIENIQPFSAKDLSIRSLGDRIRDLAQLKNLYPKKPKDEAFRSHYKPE

STAT6 = STAT6 (Homo sapiens, UniProt P42226); assay: STAT6 MSD degradation in A549 cells; conditions: for DC50: read-out: STAT6 MSD degradation DC50 (nM) 24 h
Procedure, shortened: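 A549 cells treated with a 9-point 1:3 series (top up to 10 uM) for 4 to 24 hours at 37° C., then lysed in RIPA. STAT6 quantified by sandwich MSD electrochemiluminescence immunoassay. DC50 and Dmax from four-parameter nonlinear fit, reported as letter-code bins.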

| SMILES | pIC50 [1] | STAT6 HiBiT degradation Dmax % 24 h (STAT6-HiBiT) | DC50 (STAT6-HiBiT) [nM] | STAT6 MSD degradation Dmax % 24 h (STAT6) | DC50 (STAT6) [nM] |
| --- | --- | --- | --- | --- | --- |
| CN(C)C(=O)c1cc(-c2ccc(N3C[C@H]4CN(c5ccc(C6CCC(=O)NC6=O)cc5F)[C@H]4C3)c(F)c2)c2c(c1)cc(C1=CCCN(C(=O)CCn3ccnn3)C1)n2CC1CC1 (stereo partly drawn) | > 7.00 | B (B (>70-90%)) | 1 to 10 |  |  |
| CN(C)C(=O)c1cc2c(-c3ccc([C@H]4CCN(C5CCN(c6ncc(C7CCC(=O)NC7=O)cc6F)CC5)CC4(F)F)c(F)c3F)cc(C3=CCCN(C(=O)CCn4cccn4)C3)c(F)c2[nH]1 (stereo partly drawn) | > 7.00 | A (A (>90%)) | < 1 |  |  |
| CN(C)C(=O)c1cc(-c2ccc(C3CCN(c4ccc(C5CCC(=O)NC5=O)cc4F)CC3)cc2)c2c(c1)cc(C1=CCCN(C(=O)CCn3ccnn3)C1)n2CC1CC1 (stereo not drawn) | > 7.00 | A (A (>90%)) | < 1 |  |  |
| Cc1cc(C2CCN(c3cccc4c3C(C)(C)C(=O)N4C3CCC(=O)NC3=O)CC2)ccc1-c1cc(C2=CCCN(C(=O)[C@@H](C)Cn3cccn3)C2)c(F)c2[nH]c(C(=O)N(C)C)cc12 (stereo partly drawn) | 5.00 to 6.00 | A (A (>90%)) | 1 to 10 |  |  |
| CN(C)C(=O)c1cc2c(-c3ccc(C4CCN(CCc5cccc6c5C(C)(C)C(=O)N6C5CCC(=O)NC5=O)CC4)c(F)c3)cc(C3=CCCN(C(=O)CCn4ccnn4)C3)c(F)c2[nH]1 (stereo not drawn) | > 7.00 | A (A (>90%)) | < 1 |  |  |
| Cc1cc(C2CCN(CCc3cccc4c3C(C)(C)C(=O)N4C3CCC(=O)NC3=O)CC2)ccc1-c1cc(C2=CCCN(C(=O)CCn3ccnn3)C2)c(F)c2[nH]c(C(=O)N(C)C)cc12 (stereo not drawn) | > 7.00 | A (A (>90%)) | < 1 |  |  |
| Cc1cc(C2CCN(c3cccc4c3C(C)(C)C(=O)N4C3CCC(=O)NC3=O)CC2)ccc1-c1cc(C2=CCCN(C(=O)[C@H](C)Cn3cccn3)C2)c(F)c2[nH]c(C(=O)N(C)C)cc12 (stereo partly drawn) | 4.00 to 5.00 | B (B (>70-90%)) | 10 to 100 |  |  |
| CN(C)C(=O)c1cc2c(-c3ccc(C4CCN(c5ccc(C6CCC(=O)NC6=O)cc5Cl)CC4)cc3)cc(C3=CCCN(C(=O)CCn4ccnn4)C3)c(F)c2[nH]1 (stereo not drawn) | > 7.00 | A (A (>90%)) | < 1 |  |  |
| Cc1cc(C2CCN(c3ccc(C4CCC(=O)NC4=O)cc3F)CC2)ccc1-c1cc(C(=O)N(C)C)cc2cc(C3=CCCN(C(=O)CCn4ccnn4)C3)n(CC3CC3)c12 (stereo not drawn) | > 7.00 | A (A (>90%)) | < 1 |  |  |
| CN(C)C(=O)c1cc(-c2ccc(C3CCN(c4ncc(C5CCC(=O)NC5=O)cc4F)CC3)cc2)c2c(c1)cc(C1=CCCN(C(=O)CCn3ccnn3)C1)n2CC1CC1 (stereo not drawn) | > 7.00 | B (B (>70-90%)) | < 1 |  |  |
| CN(C)C(=O)c1cc(-c2ccc(N3C[C@@H]4CN(c5ccc(C6CCC(=O)NC6=O)cc5F)[C@@H]4C3)c(F)c2)c2c(c1)cc(C1=CCCN(C(=O)CCn3ccnn3)C1)n2CC1CC1 (stereo partly drawn) | > 7.00 | A (A (>90%)) | < 1 |  |  |
| CN(C)C(=O)c1cc2c(-c3cc(F)c(C4CCN(c5ccc(C6CCC(=O)NC6=O)cc5F)CC4)cc3F)cc(C3=CCCN(C(=O)CCn4ccnn4)C3)c(F)c2[nH]1 (stereo not drawn) | > 7.00 | A (A (>90%)) | < 1 |  |  |
| CN(C)C(=O)c1cc2c(-c3cc(F)c(N4CCC(N5CCN(c6ccc(C7CCC(=O)NC7=O)c(F)c6)CC5)CC4)cc3F)cc(C3=CCCN(C(=O)CCn4cccn4)C3)c(F)c2[nH]1 (stereo not drawn) | > 7.00 | A (A (>90%)) | < 1 |  |  |
| Cc1nn(C2CCC(=O)NC2=O)c2cccc(CCN3CC[C@@H](c4cc(F)c(-c5cc(C6=CCCN(C(=O)CCn7cccn7)C6)c(F)c6[nH]c(C(=O)N(C)C)cc56)cc4F)C(F)(F)C3)c12 (stereo partly drawn) | > 7.00 | A (A (>90%)) | < 1 |  |  |
| Cc1cc(C2CCN(c3cccc4c3C(C)(C)C(=O)N4C3CCC(=O)NC3=O)CC2)ccc1-c1cc(C2=CCCN(C(=O)CCn3cccn3)C2)c(F)c2[nH]c(C(=O)N(C)C)cc12 (stereo not drawn) | 6.00 to 7.00 | A (A (>90%)) | < 1 |  |  |
| CN(C)C(=O)c1cc2c(-c3ccc(N4CCN(C5CCN(c6cc(F)c(C7CCC(=O)NC7=O)cc6F)CC5)CC4)c(F)c3F)cc(C3=CCCN(C(=O)CCn4cccn4)C3)c(F)c2[nH]1 (stereo not drawn) | > 7.00 | A (A (>90%)) | < 1 |  |  |

| SMILES | pIC50 [1] | STAT6 HiBiT degradation Dmax % 24 h (STAT6-HiBiT) | DC50 (STAT6-HiBiT) [nM] | STAT6 MSD degradation Dmax % 24 h (STAT6) | DC50 (STAT6) [nM] |
| --- | --- | --- | --- | --- | --- |
| CN(C)C(=O)c1cc(-c2ccc(N3CCCN(c4ccc(C5CCC(=O)NC5=O)cc4F)CC3)c(F)c2)c2c(c1)cc(C1=CCCN(C(=O)CCn3ccnn3)C1)n2CC1CC1 (stereo not drawn) | > 7.00 | C (C (>50-70%)) | 1 to 10 |  |  |
| CN(C)C(=O)c1cc2c(-c3ccc(C4CCN(c5ccc(C6CCC(=O)NC6=O)cc5Cl)CC4)cc3)cc(C3=CCCN(C(=O)CCn4cccn4)C3)c(F)c2[nH]1 (stereo not drawn) | 6.00 to 7.00 | A (A (>90%)) | < 1 |  |  |
| CN(C)C(=O)c1cc2c(-c3ccc(C4CCN(C5CCN(c6ncc(C7CCC(=O)NC7=O)cc6F)CC5)CC4)c(F)c3F)cc(C3=CCCN(C(=O)CCn4cccn4)C3)c(F)c2[nH]1 (stereo not drawn) | > 7.00 | A (A (>90%)) | < 1 |  |  |
| CN(C)C(=O)c1cc2c(-c3ccc(N4CCN(C5CCN(c6ncc(C7CCC(=O)NC7=O)cc6F)CC5)CC4)c(F)c3F)cc(C3=CCCN(C(=O)CCn4cccn4)C3)c(F)c2[nH]1 (stereo not drawn) | > 7.00 | A (A (>90%)) | < 1 |  |  |
| CCN(C)C(=O)c1cc2c(-c3ccc(C4CCN(c5cc(F)c(C6CCC(=O)NC6=O)cc5F)CC4)cc3)cc(C3=CCCN(C(=O)CCn4ccnn4)C3)c(F)c2[nH]1 (stereo not drawn) | 6.00 to 7.00 | A (A (>90%)) | < 1 |  |  |
| CN(C)C(=O)c1cc2c(-c3cc(F)c(N4CCN(CCc5cccc6c5C5(CC5)C(=O)N6C5CCC(=O)NC5=O)CC4)cc3Cl)cc(C3=CCCN(C(=O)CCn4cccn4)C3)c(F)c2[nH]1 (stereo not drawn) | > 7.00 | A (A (>90%)) | < 1 |  |  |
| CN(C)C(=O)c1cc(-c2ccc(C3CCN(c4ccc(C5CCC(=O)NC5=O)cc4F)CC3)cc2F)c2c(c1)cc(C1=CCCN(C(=O)CCn3ccnn3)C1)n2CC1CC1 (stereo not drawn) | > 7.00 | A (A (>90%)) | < 1 |  |  |
| COc1cc(N2CC3(CCN(c4ccc(-c5cc(C6=CCCN(C(=O)CCn7cccn7)C6)c(F)c6[nH]c(C(=O)N(C)C)cc56)cc4F)CC3)C2)c(F)cc1C(=O)NC1CCC(=O)NC1=O (stereo not drawn) | 6.00 to 7.00 | A (A (>90%)) | < 1 |  |  |
| CN(C)C(=O)c1cc2c(-c3ccc(N4CCC(N5CCC(N(C)c6ccc(Cl)c(N7CCC(=O)NC7=O)c6)CC5)CC4)cc3)cc(C3=CCCN(C(=O)CCn4cccn4)C3)c(F)c2[nH]1 | > 7.00 | A (A (>90%)) | < 1 |  |  |
| CN(C)C(=O)c1cc(-c2ccc(C3CCN(c4ncc(C5CCC(=O)NC5=O)cc4F)CC3)cc2)c2c(c1)cc(C1=CCCN(C(=O)CCn3cccn3)C1)n2CC1CC1 (stereo not drawn) | 6.00 to 7.00 | B (B (>70-90%)) | 10 to 100 |  |  |
| CN(C(=O)c1cc2c(-c3ccc(C4CCN(c5ccc(C6CCC(=O)NC6=O)cc5F)CC4)cc3)cc(C3=CCCN(C(=O)CCn4ccnn4)C3)c(F)c2[nH]1)C1CC1 (stereo not drawn) | > 7.00 | A (A (>90%)) | < 1 |  |  |
| CN(C)C(=O)c1cc(-c2ccc(C3CCN(c4ccc(C5CCC(=O)NC5=O)c(F)c4)CC3)c(F)c2)c2c(c1)cc(C1=CCCN(C(=O)CCn3ccnn3)C1)n2CC1CC1 (stereo not drawn) | > 7.00 | A (A (>90%)) | < 1 |  |  |
| CN(C)C(=O)c1cc2c(-c3ccc(C4CCN(c5ccc(C6CCC(=O)NC6=O)cc5F)CC4)cc3)cc(C3=CCCN(C(=O)CCn4ccnn4)C3)c(F)c2[nH]1 (stereo not drawn) |  | A (A (>90%)) | < 1 | A (A (>90%)) | < 1 |
| O=C1CCC(c2ccc(N3CCC(c4ccc(-c5cc(C6=CCCN(C(=O)CCn7ccnn7)C6)c(F)c6[nH]ncc56)c(F)c4)CC3)c(F)c2)C(=O)N1 (stereo not drawn) | 5.00 to 6.00 |  |  | B (B (>70-90%)) | 10 to 100 |
| COc1cc(N2CCN(CCc3ccc(C4CCC(=O)NC4=O)c(F)c3)CC2)ccc1-c1cc(C2=CCCN(C(=O)CCn3cccn3)C2)c(F)c2[nH]c(C(=O)N(C)C)cc12 (stereo not drawn) | > 7.00 |  |  | A (A (>90%)) | < 1 |
| CN(C)C(=O)c1cc(-c2cccc(N3CCN(Cc4cccc5c4n(C)c(=O)n5C4CCC(=O)NC4=O)CC3)c2)c2nc(C3=CCCN(C(=O)CCn4cccn4)C3)sc2c1 (stereo not drawn) | > 7.00 |  |  |  | > 1000 |
